# Hits are enriched below; roughly 1.2% of the tested compounds scored in any of these assays.
# miR122 inh – miR-122 Renilla sensor signal increase in Huh7, primary screen, miR-122 inhibitor project, cell-based, single point, plate reader. activation (reporter increase), % at 12.5 µM. 0.3% of 340,000 active. Huh7 miR-122 Renilla luciferase sensor, 48 h; neutral wells = 0, positive control = 100. AID 602342, 2012;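 active means mean replicate activation score at least 90 and every replicate individually at or above 90; inconclusive means only one of the two criteria met; inactive means neither criterion met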;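 further: higher luciferase means less miR-122 activity so hits act as miR-122 inhibitors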
# Statin myotox sup – suppressors of statin myotoxicity in C2C12 myotubes, primary screen, cell-based, single point, plate reader | C2C12 myotubes + simvastatin, ATP luminescence, 48 h; scaled: DMSO 0, geranylgeraniol control 100 | rescue of ATP level, % at 7.49 µM | 0.78% of 330,000 active | AID 602340, 2012;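 active means mean ATP rescue above about 67%, or every replicate alone reaching that limit, limit read from the data, passing the limit was not always enough; inconclusive means no clear call, values can overlap the other calls; inactive means mean under the limit and some replicate under it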;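 further: myotubes were challenged with 10 µM simvastatin during compound exposure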
# Cneo AK release – Cryptococcus neoformans cell lysis inducers, primary screen, AK release luminescence, single concentration; C. neoformans lysis, adenylate kinase release luminescence, 4 h; normalised: neutral wells 0, clomiphene wells 100; AID 651654, 2012; 0.2% of 360,000 active; lysis activity, % at 15 µM;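 active means mean lysis activity across replicates of at least 80%, whatever share of replicates individually reach that level; inactive means mean lysis activity below 80%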
#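 Assay system: C. neoformans cells. Amount: yeast cell density of 5 × 10^6 cells/mL. Technique: AK luminescence. Buffer or medium: YPD. Times: static 4 h at 37 °C with compound, 1 h detection. Dosing: single-point compound dose. Read-out: lysis from increased AK signal.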
# Yeast UUG start-1 – yeast start codon fidelity modulation | S. cerevisiae UUG-firefly luciferase reporter, luminescence/redox ratio | activity score, % at 18.7 µM | 0.13% of 350,000 active | AID 602363;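 active means replicate mean at a twofold rise or more, about +100% in these data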;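 further: firefly luciferase made from a UUG start codon reports start codon fidelity; reporter light over untreated wells divided by growth signal over untreated wells; some hits fall short of that in this replicate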
# Glyco luc inh – increase of ERlucT glycosylation luciferase signal, primary screen, N-linked glycosylation inhibitor project, D54 ERlucT cells, luminescence, set 2. reporter increase, % at 12.5 µM. 0.23% of 360,000 active. D54 ERlucT glycosylation luciferase reporter, 24 h; percent of 100 nM tunicamycin response;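 active means mean luciferase reporter signal, scaled so untreated is 0 and the glycosylation-blocking control 100, at or above a set limit in every replicate; inconclusive means mean reaches the limit but not every replicate does; inactive means mean below the limit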;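 further: luciferase carries N-glycosylation sites so blocking glycosylation raises the light; 0% = median of neutral control wells and 100% = median of 100 nM tunicamycin wells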
# Yeast UUG start-2 – enhancers of UUG start codon usage in yeast, dose response, S. cerevisiae, UUG firefly luciferase, cherry-pick, set 2; shares compounds with Yeast UUG start-1; luminescence, 4 h; 100% means double the DMSO signal; activation, % at 38 µM; 540 tested, under 10 active; AID 652061, 2013;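 active means signal increase whose fitted curve reaches an absolute level of 40 at a concentration under 10 µM; inactive means activity opposite to the expected increase, or the rest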
# Numbers without * were called inactive; i = inactive; ? = inconclusive; . = no result given; [ ] = remark or other dose.
# A first look (2 entries):
# Sequence of screens – Yeast UUG start-2, Cneo AK release, Statin myotox sup, Yeast UUG start-1, Glyco luc inh, miR122 inh
1) N#C/C(=C\Nc1ccc2c(c1)OCCO2)C(=O)NCc1ccco1
→ -3.7, 0.6, 0.1, 102.2*, 1.3, 0.3
2) O=C(NCC[C@H]1CC[C@@H](NS(=O)(=O)c2cccc(F)c2)[C@@H](CO)O1)C1CCCCC1
→ ., -1.0, -1.6, 2.7, ., .

# The whole of this part, from the start:
# Sequence of screens – Yeast UUG start-2, Cneo AK release, Statin myotox sup, Yeast UUG start-1, Glyco luc inh, miR122 inh
1) N#C/C(=C\Nc1ccc2c(c1)OCCO2)C(=O)NCc1ccco1
→ -3.7, 0.6, 0.1, 102.2*, 1.3, 0.3
2) O=C(NCC[C@H]1CC[C@@H](NS(=O)(=O)c2cccc(F)c2)[C@@H](CO)O1)C1CCCCC1
→ ., -1.0, -1.6, 2.7, ., .
3) Cn1nc(CC(=O)Nc2ccc(Oc3ccccc3)cc2)c2ccccc2c1=O
→ i, ., ., ., ., .
4) Cc1csc(NC(=O)Cc2nn(C)c(=O)c3ccccc23)n1
→ -6.8, 0.2, ., -18.4, 0.0, -3.7
5) Cc1csc(NC(=O)Cc2ccccc2Cl)n1
→ ., -0.2, -12.1, -11.0, 1.6, 1.4
6) COc1cccc(OC)c1NC(=O)Cc1nn(C)c(=O)c2ccccc12
→ 4.5, -3.7, 19.3, -10.4, 0.6, -0.5
7) COc1cc(NC(=O)Cc2nn(C)c(=O)c3ccccc23)cc(OC)c1
→ 3.9, 14.7, 6.1, -8.6, 0.5, -2.3
8) O=C(NCC[C@H]1CC[C@@H](NC(=O)C2CCCCC2)[C@H](CO)O1)c1ccc(F)cc1
→ ., -2.7, 9.1, -4.0, ., .
9) CN1c2ccc(-c3cccc(F)c3)cc2[C@H]2[C@H](CCN2C(=O)Cc2cccnc2)[C@H]1CO
→ ., -3.3, 9.1, -16.3, ., -2.6[16.7 µM]
10) CC(C)(C)OC(=O)N1CCN(c2ccc(NC(=O)Cn3nnc(-c4ccccc4)n3)cc2)CC1
→ ., -2.0, -42.1, -2.7, ?, -9.8
11) Cn1nc(CC(=O)Nc2ccc(N3CCN(C(=O)OC(C)(C)C)CC3)cc2)c2ccccc2c1=O
→ 3.6, -2.5, -13.1, 736.2*, -1.8, -6.7
12) COc1ccccc1NC(=O)Cc1nn(C)c(=O)c2ccccc12
→ -1.4, -1.4, ., -19.1, 2.0, .
13) C[C@H](CO)N1C[C@H](C)[C@H](CN(C)C(=O)Nc2cccc3ccccc23)OCc2cn(nn2)CCCC1=O
→ ., ., 4.4, ., ., 2.1[16.7 µM]
14) Cn1cc(Br)c(-c2cccc(NC(=O)CCC(=O)O)c2)n1
→ ., ., ., ., -0.2, .
15) C[C@@H]1CN([C@H](C)CO)C(=O)c2cc(/C=C/c3ccccc3)cnc2O[C@@H]1CN(C)Cc1ccc2c(c1)OCO2
→ ., 3.6, 26.1, 18.6, ., -2.8[16.7 µM]
16) O=C1Nc2ccc([N+](=O)[O-])cc2OC1CCN1CCOCC1 (stereo not drawn)
→ 5.9, 2.5, 20.7, -11.3, 0.3, 2.9
17) O=C1Nc2ccc([N+](=O)[O-])cc2OC1CCN1CCN(c2ccccc2)CC1 (stereo not drawn)
→ -5.8, 2.2, -0.4, -24.6, 4.2, 3.8
18) CN1CCN(CCC2Oc3cc([N+](=O)[O-])ccc3NC2=O)CC1 (stereo not drawn)
→ 15.8, ., ., ., -0.3, .
19) COc1ccc(CCN2CC(C(=O)NCCN3CCOC3=O)CCC2=O)cc1 (stereo not drawn)
→ ., -0.6, 3.5, -15.0, -0.2, -4.9
20) COc1ccc2oc(C(=O)OCC(=O)c3ccc4c(c3)OCCO4)c(C)c2c1
→ 16.2, -3.3, 8.0, 667.7*, 0.3, -1.7
21) COc1ccc2oc(C(=O)N(C)Cc3ccc4c(c3)OCCO4)c(C)c2c1
→ ., -4.3, 19.9, 22.4, 0.5, .
22) O=C(CNC(=O)c1cccs1)Nc1ccc2c(c1)OCCO2
→ ., -6.4, 4.2, -27.4, -11.3, 6.8
23) CC(=O)Nc1ccc(S(=O)(=O)NCCC(=O)Nc2ccc(C)c(F)c2)cc1
→ -0.8, 8.5, -1.8, 200.2*, 0.2, 10.4
24) CC(=O)NCCC(=O)Nc1ccc(C)c(F)c1
→ ., -2.0, 1.1, -9.4, 2.8, -4.8
25) O=C(c1ccc(COc2ccc(Cl)cc2)cc1)N1CCCCC1
→ 3.1, -2.4, 1.6, 410.4*, -0.5, -1.0
26) CCCCOc1ccc(C(=O)N2CCCCCC2)cc1
→ ., -0.7, -23.6, -3.4, -0.4, -5.3
27) CC1=C(C(=O)N(C(C)C)C(C)C)CC(CC(=O)NCCCN(C)C)C(=O)N1CCCN1CCCC1=O (stereo not drawn)
→ ., -0.6, 3.3, -6.9, 4.6, 2.3
28) CC1=C(C(=O)N(C)C)CC(CC(=O)NCCCN(C)C)C(=O)N1CCCN1CCCC1=O (stereo not drawn)
→ 7.2, 1.5, -3.0, 104.3*, 2.6, -4.1
29) CC1=C(C(=O)N(C)C)CC(CC(=O)NCCc2ccccn2)C(=O)N1CCCN1CCCC1=O (stereo not drawn)
→ -6.3, 1.4, 14.9, 101.3*, 0.5, -4.6
30) CCN(CC)C(=O)C1=C(C)N(CCCN2CCCC2=O)C(=O)C(CC(=O)NCCc2ccccn2)C1 (stereo not drawn)
→ ., -0.6, 12.5, -23.5, 0.2, 1.9

# Further records follow.
# Sequence of screens – Yeast UUG start-2, Cneo AK release, Statin myotox sup, Yeast UUG start-1, Glyco luc inh, miR122 inh
31) COc1ccc(NC(=O)c2cc(C3CCCCN3S(=O)(=O)c3cccs3)on2)c(C)c1 (stereo not drawn)
→ ., 4.5, 4.1, -11.5, -3.0, 11.1
32) CC1CCCCC1NC(=O)/C(C#N)=C/c1ccccc1F (stereo not drawn)
→ -14.0, -4.6, 4.2, 221.7*, 16.2, 1.3
33) COC(C#CCCN(C)C)(c1ccccc1)c1ccccc1
→ -2.7, ., ., ., -0.9, .
34) CCCCC12CN3CC(C)(CN(C1)C3c1ccc([N+](=O)[O-])o1)C2=O (stereo not drawn)
→ 2.1, -2.1, -1.3, 145.7*, 2.9, -26.9
35) O=C(NC[C@H]1[C@H](c2ccccc2)[C@H](CO)N1CC1CCCC1)C1CC1
→ ., 1.7, 13.0, -13.1, ., -21.4[16.7 µM]
36) CCOc1ccccc1C(=O)N(Cc1sccc1C)C1CCS(=O)(=O)C1 (stereo not drawn)
→ ., -0.4, ., 11.7, ., -0.6
37) CC(C)N(CC#CC(O)(c1ccccc1)c1ccccc1)C(C)C
→ -5.8, ., ., ., -2.1, .
38) CO[C@@H]1CN(C)C(=O)c2cc(NC(=O)C3CCCCC3)ccc2OC[C@H](C)N(C(=O)c2ccccc2)C[C@H]1C
→ ., -16.9, -3.5, 3.3, ., .
39) COCCNC(=O)C[C@@H]1CC[C@H]2[C@@H](COc3ccc(NC(=O)c4cnccn4)cc3C(=O)N2C)O1
→ ., -0.1, 18.8, 6.2, ., 0.0[16.7 µM]
40) CCN(C(=O)c1cc(Cl)ccc1OC)c1ccccc1
→ ., 2.7, 0.1, -5.4, -0.1, 12.5
41) CCN(C(=O)c1cc(Cl)ccc1OC)c1ccccc1C
→ 3.9, 0.7, ., 128.3*, -1.0, -1.9
42) CCc1c(O)c(/C(C)=N\O)c(=O)n(-c2ccccc2)c1-c1ccccc1
→ ., 1.9, -5.4, -13.4, 0.2, -4.8
43) C=CCO/N=C(/C)c1c(O)c(CC)c(-c2ccccc2)n(-c2ccccc2)c1=O
→ -3.8, -9.4, 3.3, 280.4*, 1.8, -1.9
44) CCOCC(=O)N1CCN(c2ccc(F)cc2)CC1
→ ., -1.5, -6.1, -15.9, 1.2, -4.2
45) CC(=O)N1CCN(c2ccc([N+](=O)[O-])cc2)CC1
→ 0.2, ., ., ., 3.2, .

# Taken from above:
# Value for O=C(NC[C@H]1[C@H](c2ccccc2)[C@H](CO)N1CC1CCCC1)C1CC1 under Cneo AK release: 1.7
# Value for CC(=O)N1CCN(c2ccc([N+](=O)[O-])cc2)CC1 under Glyco luc inh: 3.2
# Value for COc1ccc(NC(=O)c2cc(C3CCCCN3S(=O)(=O)c3cccs3)on2)c(C)c1 (stereo not drawn) under Statin myotox sup: 4.1
# Value for CCOc1ccccc1C(=O)N(Cc1sccc1C)C1CCS(=O)(=O)C1 (stereo not drawn) under Cneo AK release: -0.4
# Value for CO[C@@H]1CN(C)C(=O)c2cc(NC(=O)C3CCCCC3)ccc2OC[C@H](C)N(C(=O)c2ccccc2)C[C@H]1C under Cneo AK release: -16.9
